Measured values taken from PubChem BioAssay AID720708 (National Center for Advancing Translational Sciences (NCATS), 2013).
Only a part is listed here, and it is no random draw. Calls of active or inactive are those of the source. The call rests on the fitted dose curve; in most records, active means well fitted inhibition curve with a large enough effect; inconclusive means small, poorly fitted or top-dose-only effect; inactive means no such curve, though single readings can be large or run the other way.

Chains of the proteins cited; added tags and fusions are not shown.
UniProt Q8WZA2, whole entry: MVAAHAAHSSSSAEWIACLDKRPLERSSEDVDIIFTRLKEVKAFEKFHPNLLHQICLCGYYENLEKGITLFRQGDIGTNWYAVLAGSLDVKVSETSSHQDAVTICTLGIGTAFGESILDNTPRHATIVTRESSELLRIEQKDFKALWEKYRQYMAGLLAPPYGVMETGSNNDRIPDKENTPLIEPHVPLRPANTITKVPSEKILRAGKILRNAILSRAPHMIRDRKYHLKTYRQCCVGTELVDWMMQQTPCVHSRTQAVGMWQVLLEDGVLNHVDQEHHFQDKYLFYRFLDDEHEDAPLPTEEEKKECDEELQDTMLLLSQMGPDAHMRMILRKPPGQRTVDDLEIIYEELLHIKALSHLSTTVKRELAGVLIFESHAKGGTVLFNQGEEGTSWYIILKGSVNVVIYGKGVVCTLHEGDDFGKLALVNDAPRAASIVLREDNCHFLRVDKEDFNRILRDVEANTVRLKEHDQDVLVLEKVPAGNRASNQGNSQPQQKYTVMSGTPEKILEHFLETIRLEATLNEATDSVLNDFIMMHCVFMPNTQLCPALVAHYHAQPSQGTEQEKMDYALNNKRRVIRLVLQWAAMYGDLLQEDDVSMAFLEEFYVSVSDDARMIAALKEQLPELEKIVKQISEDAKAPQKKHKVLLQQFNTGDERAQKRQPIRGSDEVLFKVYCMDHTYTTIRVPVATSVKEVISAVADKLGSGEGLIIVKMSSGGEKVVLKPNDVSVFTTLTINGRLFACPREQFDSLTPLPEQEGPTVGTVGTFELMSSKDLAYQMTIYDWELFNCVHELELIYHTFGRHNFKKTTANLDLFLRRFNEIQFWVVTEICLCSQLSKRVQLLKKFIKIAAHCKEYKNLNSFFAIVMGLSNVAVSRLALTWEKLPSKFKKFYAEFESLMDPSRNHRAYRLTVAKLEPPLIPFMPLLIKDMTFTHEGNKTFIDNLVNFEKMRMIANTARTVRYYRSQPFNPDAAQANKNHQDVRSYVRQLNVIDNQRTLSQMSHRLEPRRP

Each compound was assayed against Rap guanine nucleotide exchange factor 4 (Homo sapiens) (UniProt Q8WZA2) (assay: qHTS for Antagonist of cAMP-regulated guanine nucleotide exchange factor 2 (EPAC2): primary screen). Conditions: EPAC2 GEF exchange of Rap1B-BODIPY-GDP, fluorescence; series mostly up to 114 µM; activity, negative = inhibition: at the top concentration.
Text: In multi-cellular eukaryotic organisms, the effects of cAMP are transduced by two ubiquitously-expressed intracellular cAMP receptors, the classic protein kinase A/cAMP-dependent protein kinase (PKA/cAPK) and the more recently discovered exchange protein directly activated by cAMP/cAMP-regulated guanine nucleotide exchange factor (EPAC/cAMP-GEF). Both PKA and EPAC are ubiquitously expressed in all tissues, and an increase in intracellular cAMP levels will lead to the activation of both PKA and EPAC. Therefore, careful dissections of the individual role and relative contribution of EPAC and PKA within the overall cAMP signaling in various model systems are critical for further elucidating the mechanism of cAMP signaling. To date no EPAC-specific antagonists and agonist, as well as isoform-specific agonists have been reported, and developing EPAC-specific pharmacological probes to determine the physiological functions that EPAC play in the overall cAMP-mediated signaling remains a major challenge within the research field. Furthermore, identified regulators of EPAC may lead to new mechanism-based therapeutic strategies specifically targeting the EPAC / cAMP-signaling components as EPAC has been implicated to play important roles in major human pathological conditions such as diabetes, heart disease, and cancer.
This qHTS will be used to screen the Molecular Libraries Small Molecule Repository (MLSMR) as a concentration-titration series using the NCGC unique quantitative screening (qHTS) platform to find inhibitors for EPAC2. In addition, this assay will also be used as a counterscreen for the EPAC1 qHTS. This fluorescent based assay is developed and validated for EPAC2 that measures exchange using EPAC effector Rap1 complex with BODIPY-GDP, a GDP analog with a tethered fluorophores. Inhibitors are identified by monitoring the change in fluorescence signal as the exchanged free BODIPY-GDP has a reduced fluorescence compared to Rap1-bound BODIPY-GDP. Decrease in signal (inhibition) is the desired outcome for the EPAC2 antagonist while no activity in this assay is desired for the EPAC1 antagonist counterscreen.
NIH Chemical Genomics Center [NCGC]
NIH Molecular Libraries Probe Centers Network [MLPCN]
Assay Submitter (PI): Xiaodong Cheng, The University of Texas, Medical Branch
Briefly, three uL of reagents (100 nM EPAC2, 250 nM RAP1B-BODIPY-GDP, 50 uM GDP) were dispensed into a 1536-well Greiner black solid-bottom medium binding assay plate. Controls and test compounds (23 nL) were transferred to the plate via a Kalypsys pin tool equipped with a 1536-pin array. The plates were centrifuged at 1,000 rpm for 15 seconds followed by 5 minute incubation at room temperature. The assay plates were read at 5 minute intervals for 30 minutes in the ViewLux plate reader using 480nm excitation and 540nm emission filters. The results were normalized to the agonist positive control ATA and DMSO.
Further: nearly all actives have a fitted effect of over 45% in size.
On the % scale 0 is the no-effect control and ±100 the full control effect; potency means the concentration at half of the fitted maximal effect.

Row | SMILES | activity, negative = inhibition | Potency
1 | O=[N+]([O-])c1cc([N+](=O)[O-])c(-n2nnc3ccccc32)c([N+](=O)[O-])c1 | inactive: -22.6% | –
2 | CN(Cc1cccnc1)C(=O)COc1ccc(Cl)c(Cl)c1.O=[N+]([O-])c1cc([N+](=O)[O-])c(O)c([N+](=O)[O-])c1 | inactive: -26.3% | –
3 | Cc1nc2ccc3ccccc3c2s1.O=[N+]([O-])c1cc([N+](=O)[O-])c(O)c([N+](=O)[O-])c1 | inactive: -3.3% | –
4 | O=[N+]([O-])c1cc([N+](=O)[O-])c(Nc2nnnn2CCO)c([N+](=O)[O-])c1 | inactive: -24% | –
5 | CC1=C2N=C(C=C3N=C(C(C)=C4[N-][C@@](C)([C@@H]5N=C1[C@](C)(CCC(=O)NC[C@@H](C)OP(=O)([O-])O[C@H]1[C@@H](O)[C@@H](n6cnc7cc(C)c(C)cc76)O[C@@H]1CO)[C@H]5CC(N)=O)[C@@](C)(CC(N)=O)[C@@H]4CCC(N)=O)[C@@](C)(CC(N)=O)[C@@H]3CCC(N)=O)C(C)(C)[C@@H]2CCC(N)=O.[C-]#N.[Co+3] | inactive: -12.2% | –
6 | CN1CCCCC1COC(=O)C1(O)c2ccccc2CCc2ccccc21 (stereo unspecified) | inactive: -15.5% | –
7 | COc1ccccc1OP(C)(=O)Nc1c(C)cccc1C (stereo unspecified) | inactive: 16.4% | –
8 | CP(=O)(Nc1ccc(SC(F)(F)F)cc1)Oc1ccccc1 (stereo unspecified) | inactive: -23.4% | –
9 | CCCOc1ccc(NP(C)(=O)Oc2ccc(Cl)cc2)cc1 (stereo unspecified) | inactive: -13.9% | –
10 | COc1ccc(-c2ccccn2)cc1.O=[N+]([O-])c1cc([N+](=O)[O-])c(O)c([N+](=O)[O-])c1 | inactive: -14.2% | –
11 | CC1=NCCc2c1[nH]c1ccccc21.O=[N+]([O-])c1cc([N+](=O)[O-])c(O)c([N+](=O)[O-])c1 | inactive: 1.58% | –
12 | COc1ccccc1OP(C)(=O)Nc1cccc(Br)c1 (stereo unspecified) | inactive: -19.2% | –
13 | Cc1cc(C)cc(OP(C)(=O)Nc2ccc(C)cc2C)c1 (stereo unspecified) | inactive: -4.55% | –
14 | CCOC(=O)c1ccc(NP(C)(=O)Oc2cc(C)cc(C)c2)cc1 (stereo unspecified) | inactive: -13.4% | –
15 | CP(=O)(Nc1cccc(Br)c1)Oc1ccccc1 (stereo unspecified) | inactive: 3.63% | –
16 | Cc1cc(C)cc(OP(C)(=O)Nc2ccccn2)c1 (stereo unspecified) | inactive: 4.89% | –
17 | Cc1ccc(C)c(NP(C)(=O)Oc2ccccc2)c1 (stereo unspecified) | inactive: -0.958% | –
18 | CCN(CC)CCCOC(=O)C(O)(c1ccccc1)c1ccccc1 | inactive: 1.47% | –
19 | COc1ccccc1-c1ccccn1.O=[N+]([O-])c1cc([N+](=O)[O-])c(O)c([N+](=O)[O-])c1 | inactive: -21.9% | –
20 | O=[N+]([O-])c1cc([N+](=O)[O-])c(Nc2cccnc2)c([N+](=O)[O-])c1 | inactive: 10.8% | –
21 | CC(C)(C)c1ccc(OP(C)(=O)Nc2ccc(SC(F)(F)F)cc2)cc1 (stereo unspecified) | inactive: -9.13% | –

Row | SMILES | activity, negative = inhibition | Potency
22 | Cc1cccc(C)c1OP(C)(N)=O (stereo unspecified) | inactive: -0.169% | –
23 | O=[N+]([O-])c1ccc2c(c1)C=Nc1ccccc1O2 | inactive: -14.4% | –
24 | CCOC(=O)c1ccc(NP(C)(=O)Oc2ccccc2)cc1 (stereo unspecified) | inactive: 3.17% | –
25 | COc1ccccc1OP(C)(=O)Nc1ccc(C)cc1 (stereo unspecified) | inactive: 4.64% | –
26 | Cc1ccc(NP(C)(=O)Oc2ccccc2)c(C)c1 (stereo unspecified) | inactive: -26.3% | –
27 | COc1ccccc1OP(C)(=O)Nc1cc(Cl)ccc1C (stereo unspecified) | inactive: -5.52% | –
28 | COc1ccc(OP(C)(=O)Nc2cccc(F)c2)cc1 (stereo unspecified) | inactive: 15.4% | –
29 | Cc1cc(C)cc(OP(C)(N)=O)c1 (stereo unspecified) | inactive: 23.7% | –
30 | COc1ccccc1OP(C)(=O)Nc1ccccc1 (stereo unspecified) | inactive: 1.41% | –
31 | CP(=O)(Nc1ccccc1Br)Oc1ccccc1 (stereo unspecified) | inactive: 6.38% | –
32 | Cc1cccc(C)c1OP(C)(=O)Nc1ccc(SC(F)(F)F)cc1 (stereo unspecified) | inactive: 8.06% | –
33 | CP(=O)(Oc1ccccc1)OC(c1ccccc1)C(F)(F)F (stereo unspecified) | inactive: -19.3% | –
34 | CCc1ccc(OP(C)(=O)N2CCN(c3ccc([N+](=O)[O-])cc3)CC2)cc1 (stereo unspecified) | inactive: -25% | –
35 | CP(=O)(NC(=O)Nc1ccccc1)Oc1ccccc1 (stereo unspecified) | inactive: -11.5% | –
36 | Cc1cc(C)cc(OP(C)(=O)Nc2ccc(SC(F)(F)F)cc2)c1 (stereo unspecified) | inactive: -29.6% | –
37 | CCOP(C)(=S)SCC(=O)NC(C)C(=O)O (stereo unspecified) | inactive: 20.8% | –
38 | O=[N+]([O-])c1cc([N+](=O)[O-])c(O)c([N+](=O)[O-])c1.c1ccc(Oc2ccncc2)cc1 | inactive: -11.1% | –
39 | CCOC(=O)c1ccc(NP(C)(=O)Oc2ccc(OC)cc2)cc1 (stereo unspecified) | inactive: -16.3% | –
40 | CP(=O)(Nc1ccccn1)Oc1ccc(Cl)cc1 (stereo unspecified) | inactive: 10.3% | –
41 | CCN(CC)CC(O)COC(=O)C(O)(c1ccccc1)C1CCCCC1 (stereo unspecified) | inactive: -2.7% | –
42 | COc1ccc(OP(C)(=O)Nc2ccc(Br)cc2)cc1 (stereo unspecified) | inactive: 7.71% | –

Row | SMILES | activity, negative = inhibition | Potency
43 | CP(=O)(Oc1ccccc1)N1CCOC1=O (stereo unspecified) | inactive: -0.943% | –
44 | CCc1ccc(OP(C)(=O)Nc2cccnc2)cc1 (stereo unspecified) | inactive: 12.9% | –
45 | COc1ccccc1OP(C)(=O)Nc1c(C)n(C)n(-c2ccccc2)c1=O (stereo unspecified) | inactive: -1.58% | –
46 | O=C(OCCCN1CCCC1)C(O)(c1ccccc1)C1CCCCC1 (stereo unspecified) | inactive: 1.09% | –
47 | CP(=O)(Nc1ccc(Cl)cc1)Oc1ccc(F)cc1 (stereo unspecified) | inactive: 6.29% | –
48 | CC(C)(C)c1ccc(OP(C)(=O)O)cc1 | inactive: 9.85% | –
49 | CN(C)C(=O)c1c([N+](=O)[O-])cc([N+](=O)[O-])cc1[N+](=O)[O-] | inactive: 3.37% | –
50 | Nc1ccc2c(ccc3cccnc32)n1.O=[N+]([O-])c1cc([N+](=O)[O-])c(O)c([N+](=O)[O-])c1 | inactive: -16.6% | –
51 | CP(=O)(OC12CC3CC(CC(C3)C1)C2)OC12CC3CC(CC(C3)C1)C2 | inactive: -0.84% | –
52 | CCOC(=O)c1ccc(NP(C)(=O)Oc2ccc(Cl)cc2)cc1 (stereo unspecified) | inactive: -1.82% | –
53 | COc1ccc(OP(C)(=O)Nc2ccccc2Br)cc1 (stereo unspecified) | inactive: 18.3% | –
54 | COc1ccccc1OP(C)(=O)Nc1ccc(C)c(C)c1 (stereo unspecified) | inactive: -22.1% [at 57.1 µM] | –
55 | CP(=O)(OCCOc1ccccc1)OCCOc1ccccc1 | inactive: -1.4% | –
56 | COc1ccccc1OP(C)(=O)Nc1ccc(Br)cc1 (stereo unspecified) | inactive: -9.33% | –
57 | CN(C)CCOC(=O)C(O)(c1ccccc1)C1CCCC1 (stereo unspecified) | inactive: 4.84% | –
58 | COc1ccc(OP(C)(=O)Nc2ccccn2)cc1 (stereo unspecified) | inactive: 18.5% | –
59 | O=[N+]([O-])c1cc([N+](=O)[O-])c(Nc2ccccn2)c([N+](=O)[O-])c1 | inactive: -11% | –
60 | Cc1c(NP(C)(=O)Oc2ccc(C(C)C)cc2)c(=O)n(-c2ccccc2)n1C (stereo unspecified) | inactive: 15.3% | –
61 | CCc1ccc(OP(C)(=O)O)cc1 | inactive: 0.691% | –
62 | CP(=O)(Nc1ccccn1)Oc1ccccc1 (stereo unspecified) | inactive: -0.261% | –
63 | COc1ccccc1OP(C)(=O)Nc1ccc(C)cc1C (stereo unspecified) | inactive: 1.8% | –

Row | SMILES | activity, negative = inhibition | Potency
64 | CP(=O)(Nc1ccccc1F)Oc1ccccc1 (stereo unspecified) | inactive: 21.8% | –
65 | O=C(OCCN1CCN(CCOCc2ccccc2)CC1)C(O)(c1ccccc1)c1ccccc1 | inactive: -3.12% | –
66 | COc1ccc(OP(C)(=O)Nc2ccc(SC(F)(F)F)cc2)cc1 (stereo unspecified) | inactive: -24.1% | –
67 | CCOC(=O)c1ccc(NP(C)(=O)Oc2ccc(F)cc2)cc1 (stereo unspecified) | inactive: 10.1% | –
68 | CCN(CC)CCCOC(=O)C(O)(c1ccccc1)C1CCCCC1 (stereo unspecified) | inactive: 10.1% | –
69 | Cc1c([N+](=O)[O-])cc([N+](=O)[O-])c(Br)c1[N+](=O)[O-] | inactive: -8.73% | –
70 | CP(=O)(Nc1ccccc1)Oc1ccc(F)cc1 (stereo unspecified) | inactive: 18.9% | –
71 | COc1ccc(OP(C)(=O)Nc2cccc(Br)c2)cc1 (stereo unspecified) | inactive: -2.75% | –
72 | COc1ccc(NP(C)(=O)Oc2ccccc2OC)cc1 (stereo unspecified) | inactive: -3.79% | –
73 | CN(C)CCOC(=O)C(O)(c1ccccc1)C1CCCCC1 (stereo unspecified) | inactive: -1.87% | –
74 | Cc1cc(-c2cccc3ccccc23)c(C)cn1.O=[N+]([O-])c1cc([N+](=O)[O-])c(O)c([N+](=O)[O-])c1 | – | active: 20 µM
75 | O=[N+]([O-])c1ccc(OP2(=O)COCCO2)cc1 (stereo unspecified) | inactive: 17.6% | –
76 | Cc1c(C(c2ccc3c(c2)OCO3)c2c(C)n(C)n(-c3ccccc3)c2=O)c(=O)n(-c2ccccc2)n1C.O=[N+]([O-])c1cc([N+](=O)[O-])c(O)c([N+](=O)[O-])c1 | inactive: -2.31% | –
77 | CP(=O)(Nc1ccc(SC(F)(F)F)cc1)Oc1ccc(F)cc1 (stereo unspecified) | inactive: -16.9% | –
78 | CCOP(C)(=S)SCC(=O)NC(C)(CC)C(=O)O (stereo unspecified) | inactive: 15.5% | –
79 | CP(=O)(Nc1ccc2c(c1)OCCO2)Oc1ccccc1 (stereo unspecified) | inactive: 1.2% | –
80 | O=[N+]([O-])c1cc([N+](=O)[O-])c(C(F)(F)F)c([N+](=O)[O-])c1O | – | active: 8.44 µM
81 | Cc1ccccc1NP(C)(=O)Nc1ccccc1C | inactive: 8.32% | –
